Experimental data from PMC11985910 (Nature Communications, 2025).

The chains behind the UniProt entries cited, without tags or fusion partners. Residues count along the entry.
UniProt P05164, 279-745: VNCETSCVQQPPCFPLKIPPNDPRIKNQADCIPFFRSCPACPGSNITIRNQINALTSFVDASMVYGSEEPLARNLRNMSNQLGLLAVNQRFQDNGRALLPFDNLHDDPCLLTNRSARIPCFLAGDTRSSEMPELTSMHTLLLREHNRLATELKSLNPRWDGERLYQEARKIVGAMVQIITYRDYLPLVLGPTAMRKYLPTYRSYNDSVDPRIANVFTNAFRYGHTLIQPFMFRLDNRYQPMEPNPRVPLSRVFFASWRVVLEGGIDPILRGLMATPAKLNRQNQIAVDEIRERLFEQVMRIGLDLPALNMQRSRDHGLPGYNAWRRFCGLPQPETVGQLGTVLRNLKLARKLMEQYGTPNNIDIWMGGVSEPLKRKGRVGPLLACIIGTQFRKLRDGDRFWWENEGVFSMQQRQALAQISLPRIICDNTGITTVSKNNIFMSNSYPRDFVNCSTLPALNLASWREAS
UniProt P05164, 165-273: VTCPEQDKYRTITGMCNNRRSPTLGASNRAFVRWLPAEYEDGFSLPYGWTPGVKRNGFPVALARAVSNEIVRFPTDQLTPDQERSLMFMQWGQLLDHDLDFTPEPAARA

Experiments:
MPO [1] = molecular target: T1, MPO (Homo sapiens, UniProt P05164); assay: MPO-catalysed H2O2 consumption, H2O2-specific electrode; format: biochemical
MPO [2] = molecular target: T1, MPO; assay: MPO chlorination assay; format: biochemical

Structure (SMILES): COc1ccc(Cl)cc1-c1cc(=O)[nH]c(=S)n1CC(N)=O [PF06282999, 2-(6-(5-Chloro-2-methoxyphenyl)-4-oxo-2-thioxo-3,4-dihydropyrimidin-1(2H)-yl)acet amide, reference compound]
- IC50 (MPO [1]): 630 nM
- IC50 (MPO [2]): 1230 nM
